Biological target: Endothelin-1 receptor (Homo sapiens, UniProt P25101)
Assay: Inhibitory concentration required against [125I]ET1 binding to membranes of CHO cells expressing human ETA receptor
Assay type: cell membranes

Chains of the proteins cited; added tags and fusions are not shown.
UniProt P25101, whole entry: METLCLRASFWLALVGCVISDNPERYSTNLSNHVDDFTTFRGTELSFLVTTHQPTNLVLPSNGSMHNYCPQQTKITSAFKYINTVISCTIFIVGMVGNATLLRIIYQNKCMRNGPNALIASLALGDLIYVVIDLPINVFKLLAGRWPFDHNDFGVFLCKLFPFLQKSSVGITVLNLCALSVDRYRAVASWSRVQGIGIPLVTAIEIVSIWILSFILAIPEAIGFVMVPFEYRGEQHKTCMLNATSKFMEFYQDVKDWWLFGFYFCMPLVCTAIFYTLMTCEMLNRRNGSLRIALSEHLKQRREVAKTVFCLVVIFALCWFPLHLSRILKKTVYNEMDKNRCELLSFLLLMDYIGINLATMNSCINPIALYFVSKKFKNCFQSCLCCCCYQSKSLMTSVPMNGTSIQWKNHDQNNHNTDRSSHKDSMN

IC50: 2190 nM
Structure (SMILES): COc1ccccc1Oc1c(NS(=O)(=O)c2ccc(C)cn2)nc(-c2ccncc2)nc1OCCNS(=O)(=O)c1ccc(C)cc1

Reference: ChEMBL document CHEMBL1136631, “Bis-sulfonamides as endothelin receptor antagonists” (Bioorg Med Chem Lett, 2003)
